Hits are enriched below; roughly 2.4% of the tested compounds scored in any of these assays.
Rango release inh: prevents RanGTP from dissociating the Rango-importin beta complex; AID 540253; Potency, µM (top dose mostly 46.1 µM), for inactives: at the highest dose activity change, negative = inhibition; Biochemical FRET Rango-importin beta, RanGTP-induced dissociation; 0.071% of 340,000 active; O95149+P62826; also: % of control where 0% means no effect; nearly all actives have a fitted effect of over 45% in size
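Recombinant Rango FRET biosensor (EYFP–snurportin 1 IBB–cerulean CFP10) at 0.1 uM premixed with 0.25 uM importin beta in PBS, 1 mM DTT, 0.02% Tween-20, 0.1% BSA. Compound added 5 min; RanGTP-RCC1 (0.6 uM Ran, 2 mM GTP, 0.2 uM RCC1) then triggers release, read at 45 min.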
Rango complex inh: inhibitors of Rango-importin beta complex formation; Potency, µM (series often up to 92.2 µM), inactives show at the highest dose inhibition of complex formation; Rango CFP/YFP FRET sensor + importin beta, 45 min; 0.031% of 340,000 active;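 also: 0% = DMSO wells and 100% = buffer wells lacking importin beta; nearly all actives have a fitted effect of over 15% in size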
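Inhibition scored from the CFP 486 nm/YFP 530 nm FRET ratio 45 min after adding 0.125 microM importin beta to 50 nM Rango biosensor preincubated 5 min with compound (room temperature, PBS with DTT, Tween-20, BSA). No-importin wells as positive control.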
ClpP mod: qHTS Assay for Activators of ClpP. ATP-dependent Clp protease proteolytic subunit (Bacillus subtilis (strain 168)), P80244. purified B. subtilis ClpP, FRET peptide cleavage, 20 min. Potency, µM (top dose mostly 57.5 µM), for the others: at the top dose activity change, negative = active. 1.9% of 340,000 active; active = well fitted falling curve with a large enough effect; inconclusive = small, poorly fitted or top-dose-only effect; inactive = no such curve, though single readings can be large or run the other way; also: the source files actives as falling curves though it sought activators and does not explain the sign; nearly all actives have a fitted effect of over 65% in size
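ClpP 10 microg/mL final, pH 8 Tris/KCl buffer with BSA, glycerol, Tween-20; compound pinned in; FRET-FV substrate; RT 20 min; Ex320/Em430; ΔFRET vs ADEP 5.8 microM, DMSO, no enzyme.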
ALOX12 inh: inhibitors of human 12S-lipoxygenase ALOX12; Potency, µM (doses to about 108 µM), for inactives: at the highest dose activity change, negative = inhibition, actives largely listed as inhibitors; purified 12hLO, xylenol orange hydroperoxide absorbance; 1.1% of 580,000 active; active = well fitted curve in the direction sought with a large enough effect; inconclusive = small, poorly fitted or top-dose-only effect, or another doubt; inactive = no such curve, though single readings can be large; an effect the other way counts as inactive or inconclusive; also: % is scaled to controls: 0 for no effect and ±100 for the full control effect
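Purified human 12hLO at 150 nM in 25 mM Hepes, 0.01% Triton X-100, pH 7.0, preincubated 15 min at room temperature with compound. Reaction started with 40 uM arachidonic acid, 30 min at room temperature. Hydroperoxide measured by Fe-xylenol orange, 573/405 nm absorbance ratio.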
TSG101-PTAP inh: blocks PTAP/TSG101 interaction to inhibit HIV-1 budding; Q99816; Fluorescence polarization, FITC-PTAP peptide / Tsg101 binding; Potency, µM (series often up to 115 µM), without a hit: at the top dose activity change, negative = inhibition, most hits filed as inhibitors; 340,000 tested, under 10 active; active = well fitted inhibition curve with a large enough effect in the main read-out, with a control signal flat, not every such curve was filed as active; inconclusive = small, poorly fitted or top-dose-only effect, or effect the other way, or a change in a side signal; inactive = no such curve, though single readings can be large or run the other way; also: % of control where 0% means no effect
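Tsg101 binding domain (10 uM final) was mixed with compound and a FITC-labeled PTAP peptide (50 nM final) in HEPES pH 7.5 buffer with NaCl, Tween 20, EDTA and TCEP; fluorescence polarization was read after 20 min at r.t.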
TDP1 block: blocks human tyrosyl-DNA phosphodiesterase 1 | Q9NUW8 | recombinant TDP1, AlphaScreen DNA substrate cleavage | Potency, µM (doses to about 130 µM), for the others: at the highest dose activity change, negative = inhibition, usual class: inhibitors | 0.28% of 350,000 active; active = well fitted curve in the direction sought with a large enough effect; inconclusive = small, poorly fitted or top-dose-only effect, or another doubt; inactive = no such curve, though single readings can be large; an effect the other way counts as inactive or inconclusive; also: % is scaled to controls: 0 for no effect and ±100 for the full control effect; nearly all actives have a fitted effect of over 40% in size
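Tdp1 1 nM final; 15 min RT w/ cpd; substrate 15 nM, 5 min; beads 10 ug/ml, 10 min; AlphaScreen read. Neg ctrl: no enzyme.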
* hit, by the source's call; ? = inconclusive; . = no result given; ! = not active in a repeat; [ ] = another dose, or the depositor's remark. Unless noted, calls follow the shape of the full dose curve. Potency is read from the fitted curve at half-maximal effect.

SMILES	Rango release inh	Rango complex inh	ClpP mod	ALOX12 inh	TSG101-PTAP inh	TDP1 block
O=C(NCC1CC1)c1cn(Cc2ccccc2)c2ccccc12	.	.	.	-4%	.	.
COP(=O)(OC)c1nc(-c2ccc([N+](=O)[O-])cc2)oc1N1CCCCC1	5%	29µM*	-5%	0%	0%	.
CCCCOC(=O)c1ccccc1N	12%	2%	4%	-7%	1%	14%
CCCCCCOC(=O)c1ccccc1N	-10%	-4%	22µM*	0%[57.4 µM]	-2%	0%
NC(Cc1ccccc1)c1cc2ccccc2[nH]1 (configuration not stated)	.	.	.	-1%	.	.
CC1=C2C3OC(=O)C(C)C3CC[C@@]2(C)C=CC1=O (some centres not stated)	6%	4%	-1%	-8%	-2%	14µM*!
CC1=C2[C@@H]3OC(=O)[C@@H](C)[C@@H]3CC[C@]2(C)C=CC1=O	.	.	.	.	.	12%[21 µM]
c1ccc2c(CNC34CC5CC(CC(C5)C3)C4)c[nH]c2c1	.	.	.	-33%	.	.
C#CC1(O)CCC2C3CCC4=CC(=O)CCC4=C3C=CC21C (configuration not stated)	-7%	?	28µM*	?	-2%	.
CC(C)c1ccc(N2C(=O)NC(=O)/C(=C\C=C\c3ccco3)C2=O)cc1	-23%	?	.	10µM*	-7%	2%

An excerpt from above in order of molecular weight, rising.
SMILES	Rango release inh	Rango complex inh	ClpP mod	ALOX12 inh	TSG101-PTAP inh	TDP1 block
CCCCCCOC(=O)c1ccccc1N	-10%	-4%	22µM*	0%[57.4 µM]	-2%	0%
CC1=C2C3OC(=O)C(C)C3CC[C@@]2(C)C=CC1=O (some centres not stated)	6%	4%	-1%	-8%	-2%	14µM*!
O=C(NCC1CC1)c1cn(Cc2ccccc2)c2ccccc12	.	.	.	-4%	.	.

Quoted from the listing:
For TSG101-PTAP inh, COP(=O)(OC)c1nc(-c2ccc([N+](=O)[O-])cc2)oc1N1CCCCC1 reads 0%
For TDP1 block, CC1=C2[C@@H]3OC(=O)[C@@H](C)[C@@H]3CC[C@]2(C)C=CC1=O reads 12%[21 µM]
For Rango complex inh, CC1=C2C3OC(=O)C(C)C3CC[C@@]2(C)C=CC1=O (some centres not stated) reads 4%
For ALOX12 inh, NC(Cc1ccccc1)c1cc2ccccc2[nH]1 (configuration not stated) reads -1%
For ALOX12 inh, CCCCCCOC(=O)c1ccccc1N reads 0%[57.4 µM]
For Rango release inh, CC(C)c1ccc(N2C(=O)NC(=O)/C(=C\C=C\c3ccco3)C2=O)cc1 reads -23%

Further entries.
SMILES	Rango release inh	Rango complex inh	ClpP mod	ALOX12 inh	TSG101-PTAP inh	TDP1 block
CC(C)c1ccc(N2C(=O)NC(=O)/C(=C\c3cnc(-c4ccccc4)nc3)C2=O)cc1	1%	3%	-1%	?	-5%	-8%
O=C(O)c1cccc2c1NC(C(=O)O)C1CC(Sc3ccccc3[N+](=O)[O-])C(Cl)C21 (configuration not stated)	-5%	?	-25%	3.2µM*	-4%	.
CC(=O)c1ccc2c(c1)C1C(Cl)C(Sc3ccccc3[N+](=O)[O-])CC1C(C(=O)O)N2 (configuration not stated)	4%	-1%	1%	11µM*	2%	-5%
COc1ccc2[nH]c(C)c(CCNCc3ccc(F)cc3F)c2c1	.	.	.	1µM*	.	.
Cc1[nH]c2ccc(OC(F)(F)F)cc2c1CCNCc1cccc([N+](=O)[O-])c1	-2%	2%	.	?	0%	.
CCOc1cccc(CNCCc2c(C)[nH]c3ccc(OC(F)(F)F)cc23)c1O	6%	1%	-4%	40µM*	-7%	.
CCC(CC)c1cc([C@H]2CN3CC[C@H]2C[C@@H]3CNS(=O)(=O)c2cccs2)nc(-c2ccncc2)n1	.	.	.	22%	.	.
C=CCN(C)C(=O)[C@H]1CN2CCC1C[C@@H]2Cn1cc(-c2ccc(C(C)(C)C)cc2)nn1 (some centres not stated)	.	.	.	25%[176 µM]	.	.
CC1=C(O)C(=O)C=C2C1=CC=C1[C@@]2(C)CC[C@@]2(C)[C@@H]3C[C@](C)(C(=O)O)CC[C@]3(C)CC[C@]12C	.	.	.	2.4µM*!	.	.
c1ccc2c(CN3CCCCCCC3)c[nH]c2c1	-2%	-1%	28µM*	?	-1%	3%
O=C(Cc1c[nH]c2ccccc12)N1CCN(CC(=O)N2CCCCCC2)CC1	.	.	.	0%	.	.
CN(C)C(=O)Oc1ccc(-c2cn3cc(C(F)(F)F)ccc3n2)cc1	-15%	2%	10µM*	-31%	-4%	-1%
COc1cccc(CN2CCN(C(=O)COc3ccc4ccccc4c3)CC2)c1	4%	0%	1%	1%	-3%	2%
COc1cc(CN2CCN(C(=O)COc3ccc4ccccc4c3)CC2)cc(OC)c1O	.	.	.	1.6µM*	.	.
O=C1NC(=O)N(c2cccc(Cl)c2)C(=O)/C1=C\c1ccc(Sc2nc3ccccc3[nH]2)o1	?	?	0%	10µM*	-2%	.
O=C1NC(=O)N(c2ccccc2)C(=O)/C1=C/c1ccc(Sc2ccccc2)o1	-19%	?	1%	.	-4%	-12%
O=C1NC(=O)N(c2ccccc2F)C(=O)/C1=C/c1ccc(Sc2nc3ccccc3[nH]2)o1	?	?	-1%	32µM*	-1%	2%
CN(C)c1ccc(/C=C2\C(=O)NC(=O)N(CCc3ccc(F)cc3)C2=O)cc1	1%	?	-1%	16µM*	0%	-2%
CN(C)c1ccc(/C=C2/C(=O)NC(=O)N(Cc3ccco3)C2=O)cc1	?	?	1%	-29%	-2%	28µM*
O=C1NC(=O)N(CCc2ccc(F)cc2)C(=O)/C1=C/c1cccs1	1%	-5%	-16%	?	-3%	0%
COc1ccc(CN2C(=O)NC(=O)/C(=C\c3ccco3)C2=O)cc1	-26%	?	.	40µM*	-1%	.
COc1ccccc1CNC(=O)[C@H]1CN2CCC1C[C@@H]2Cn1cc(CN(C)Cc2ccccc2)nn1 (some centres not stated)	.	.	.	28%	.	.
CCCn1ncc(C(=O)N[C@H]2COC[C@H]2Cc2cc(C)no2)c1C	.	.	.	8%	.	.
COc1ccccc1CC(=O)N1CCC2(CC1)c1nccn1-c1ccccc1CN2C	.	.	.	31%	.	.
c1ccc2c(c1)Nc1ccccc1S2	-17%	-4%	0%	0.11µM*	1%	13%
Cc1nc(-c2ccccc2)cc([C@H]2CN3CC[C@H]2C[C@@H]3CNC(=O)NC(C)C)n1	.	.	.	25µM*	.	.
COc1ccc(NC(=O)NC[C@H]2C[C@@H]3CCN2C[C@@H]3c2cc(-c3ccccc3Br)nc(C)n2)cc1	.	.	.	35µM*	.	.
Cc1ncc2c(n1)C[C@@H]1CC[C@H]2N1C(=O)Nc1ccccc1	.	.	.	6%	.	.
[O]=[Cr](=[O])([OH])[O][Cr](=[O])(=[O])[OH]	.	.	.	.	.	6.3µM*!
O=C1NC(=O)N(Cc2ccco2)C(=O)/C1=C/c1ccc(-c2cccc([N+](=O)[O-])c2)o1	?	-1%	1%	.	-1%	.

Bioassay records (PubChem)
